Measured values from ChEMBL document CHEMBL1131423, “N-(2-Benzoylphenyl)-L-tyrosine PPARgamma agonists. 2. Structure-activity relationship and optimization of the phenyl alkyl ether moiety” (J Med Chem, 1998).

Assays:
[1] = target: T1, Peroxisome proliferator-activated receptor alpha (Homo sapiens, UniProt Q07869); assay: In vitro transactivation of Peroxisome proliferator activated receptor alpha.; type: functional
T1 sequence (Q07869 whole entry): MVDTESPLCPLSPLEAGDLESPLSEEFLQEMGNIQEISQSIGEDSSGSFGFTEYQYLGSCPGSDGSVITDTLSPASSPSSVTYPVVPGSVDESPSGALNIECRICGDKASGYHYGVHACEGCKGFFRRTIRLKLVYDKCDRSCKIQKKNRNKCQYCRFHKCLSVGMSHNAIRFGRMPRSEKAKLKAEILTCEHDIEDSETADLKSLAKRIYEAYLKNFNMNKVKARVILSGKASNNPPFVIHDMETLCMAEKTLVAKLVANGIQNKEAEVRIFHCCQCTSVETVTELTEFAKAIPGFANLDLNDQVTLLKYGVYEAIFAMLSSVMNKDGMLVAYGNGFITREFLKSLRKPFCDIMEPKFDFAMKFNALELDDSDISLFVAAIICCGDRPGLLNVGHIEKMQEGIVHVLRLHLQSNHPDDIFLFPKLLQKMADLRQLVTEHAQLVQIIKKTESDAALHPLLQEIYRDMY

[2] = target: T1, Peroxisome proliferator-activated receptor alpha; assay: Tested in vitro for inhibiting the 50% binding of Peroxisome proliferator activated receptor alpha

## Cc1oc(-c2ccccc2)nc1CCOc1ccc(C[C@H](Nc2ccccc2C(=O)c2ccccc2)C(=O)O)cc1 [FARGLITAZAR]
[1]
  EC50: 457 nM
[2]
  Ki: 490 nM
